# In the library only some 2.3% were active in any assay of this set; here they are far more common.
# miR-21 reporter: miR-21 reporter, rising signal; HeLa miR-21 FLuc reporter, luciferase, 48 h; Potency, µM (highest dose often 38.3 µM); 340,000 tested, under 10 active; AID 2288; active = well fitted rising curve with a large enough effect; inconclusive = small, poorly fitted or top-dose-only effect; inactive = no such curve, though single readings can be large or run the other way;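 further: miR-21 action dims this reporter so a rising signal means less miR-21 action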
#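 Using DMEM plus 10% FBS, HeLa miR-21-FLuc cells are incubated with test compounds (final up to about 40uM) for 48 hours; firefly luciferase signal is then imaged following reagent-mediated lysis.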
# A549 viability: A549 cytotoxicity, counter-screen for Nrf2 inhibitors. A549 ARE-Fluc cells, CellTiter-Fluor viability, 18-24 h. Potency, µM (titrated, usually from 46 µM), most hits filed as inhibitors. 390,000 tested, 0.16% active. AID 504648
#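 Cytotoxicity counterscreen: CellTiter-Fluor fluorescence was measured in A549 ARE_Fluc cells after 18-24 h of compound exposure in a concentration series. The subsequent BugLite luminescent read reports ARE-luciferase activity.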
# Nrf2 ARE act: Nrf2 pathway activation. AREc32 ARE-luciferase reporter (MCF7-derived line), luminescence, 24 h. Potency, µM (top dose mostly 46.1 µM), usual class: activators. 410,000 tested, 0.31% active; also: nearly all actives have a fitted effect of over 65% in size
#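 Luciferase luminescence (Steady-Glo, 30 min at room temperature) served as the read-out of ARE activation in AREc32 cells treated with compounds for 24 hr at 37 deg C.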
# GRP78 ERSR act: ER stress response induction in glioma; 420,000 tested, 0.02% active; AID 602332; Potency, µM, most hits filed as activators; U87-MG GRP78 promoter luciferase reporter, 16 h; also: series mostly up to about 76 µM; nearly all actives have a fitted effect of over 35% in size
#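 Stably transfected U87-MG glioma cells carrying a GRP78-based luciferase sensor; 16 h compound incubation. Luminescence end-point read 10 min after Bright-Glo addition at room temperature.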
# Mito fusion act: mitochondrial division inhibition or fusion activation. 320,000 tested, 0.23% active. AID 485298. Potency, µM (series often up to 46.1 µM), actives largely listed as activators. S. cerevisiae fusion-defective mutant growth rescue, CellTiterGlo 48 h; also: nearly all actives have a fitted effect of over 45% in size
#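 Luminescent cell viability in 1536-well qHTS format served as the measure of rescued growth in ts fusion-mutant S. cerevisiae cultured on non-fermentable YPEG for 48 hours at 37C.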
# Nrf2 block: Nrf2 pathway inhibition; 360,000 tested, 2.1% active; Potency, µM (titrated, usually from 46 µM), hits mostly inhibitors; A549 ARE-Fluc reporter, luciferase luminescence, 18-24 h; AID 504444; also: nearly all actives have a fitted effect of over 60% in size
#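 A549 ARE_Fluc cells (5000/well, 5% FBS OPTI-MEM) pre-incubated 2 h, then treated with compounds 18-24 h at 37C/5% CO2 in concentration-response. CellTiter-Fluor viability read first; BugLite luciferase luminescence after 15 min at room temperature gives Nrf2 activity.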
# Numbers stand for hits; . = inactive; ? = inconclusive; / = no result; [ ] = another dose, or the depositor's remark. Unless noted, calls follow the shape of the dose curve; as a rule, active = well fitted curve in the direction sought with a large enough effect; inconclusive = small, poorly fitted or top-dose-only effect, or another doubt; inactive = no such curve, though single readings can be large; an effect the other way counts as inactive or inconclusive.
SMILES,miR-21 reporter,A549 viability,Nrf2 ARE act,GRP78 ERSR act,Mito fusion act,Nrf2 block
O=C(c1ccc2ccccc2c1)C1CCCN(C(=O)CCn2cnnn2)C1 (stereo not drawn),.,.,.,.,.,.
CCOc1ccc(N)cc1OC,.,.,.,.,.,.
O=C(Nc1ccc(S(=O)(=O)NC2CCCCC2)cc1)c1ccc(Br)o1,.,.,.,.,.,15µM
CN(C)S(=O)(=O)c1ccc(NC(=O)c2ccc(Br)o2)cc1,.,.,.,.,.,.
CN(C1CCCCC1)S(=O)(=O)c1ccc(NC(=O)c2ccc(Br)o2)cc1,.,.,.,.,11µM,?
COc1ccc(S(=O)(=O)NCCc2nnc3ccc(SCC(=O)Nc4cc(C)cc(C)c4)nn23)cc1,.,.,.,.,/,.
CCOC(=O)C1Nc2ccccc2C2c3ccccc3CC12 (stereo not drawn),/,.,.,.,/,.
CCOC(=O)C1Nc2c(F)cc(C)cc2C2c3ccccc3CC12 (stereo not drawn),/,.,11µM,.,/,.
COc1ccc(S(=O)(=O)N2CCCN(CC(=O)Nc3ccccc3F)CC2)cc1,.,.,.,.,.,.
O=C(Nc1ncccn1)c1cccc(Cl)c1,/,.,.,.,/,.
Cc1nc(NCc2ccco2)nc2c1C(=O)CC(C)C2 (stereo not drawn),.,.,2µM,.,.,/
O=C(/C=C/c1ccco1)NCCc1ccc(F)cc1,.,.,14µM,.,.,?
CCSC(C)CC1C/C(=N/O)c2c(CC)noc2C1 (stereo not drawn),.,.[1.84 µM],.,.,.,23µM
CCC(=O)Nc1c2c(nn1-c1ccc(C)cc1C)CSC2,.,.,.,.,.,.
Cc1ccc(CN2CCc3c(OCc4ccc(F)cc4)cccc3C2=O)cc1,.,.,.,.,.,?
O=C1c2cccc(OCc3ccc(F)cc3)c2CCN1Cc1ccc(F)cc1,.,.,.,.,?,16µM
COCCCN1CN=C(NS(=O)(=O)c2ccc(NC(C)=O)cc2)NC1,.,.,.,.,/,.
CCn1nc(C(=O)Nc2cccc3ccccc23)c(Cl)c1Cl,.,.,7.1µM,.,.,.
CCn1nc(C(=O)Nc2ccccc2C)c(Cl)c1Cl,.,.,.,.,.,.
CCCS(=O)(=O)N1CCN(C(=O)c2ccc(-c3ccccc3)cc2)CC1,.,.,.,.,.,?
C(#Cc1ccccc1)C[N+]1(CC#Cc2ccccc2)CCCCC1,.,.,.,.,.,12µM
O=C(COC(=O)CNS(=O)(=O)c1ccccc1)Nc1ncc(Cl)cc1Cl,/,.,.,.,.,.
CCOC(=O)Cc1csc(NC(=S)NC(=O)c2ccccc2)n1,.,.,.,.,.,.
CCOC(=O)Cc1csc(NC(=S)NC(=O)c2ccc(C)cc2)n1,.,.,.,.,.,2.1µM
Cc1csc(NC(=S)NC(=O)c2ccccc2)n1,.,.,6.3µM,.,.,?
SMILES,miR-21 reporter,A549 viability,Nrf2 ARE act,GRP78 ERSR act,Mito fusion act,Nrf2 block
Cc1ccc2cccc(NC(=S)NC(=O)c3ccccc3)c2n1,.,.,4µM,.,.,.
COc1cc(OC)nc(NC(=S)NC(=O)c2ccccc2)n1,.,.,11µM,.,.,.
CCn1c(C)nc2cc(C(=O)N=Nc3c(O)[nH]c4ccccc34)ccc21,.,/,/,/,.,/
S=c1[nH]c2ccccc2s1,/,/,/,.,/,/
COCCCNc1nc2nonc2nc1N1C[C@H]2CC[C@H]1C2,.,.,.,.,.,.
O=C(O)c1ccc(NC(=O)c2cc3c([nH]c2=O)CCCC3=O)cc1,/,/,/,.,/,/
COCCCNC(=S)Nc1ccc(S(=O)(=O)Nc2cc(OC)nc(OC)n2)cc1,.,.,.,.,.,.
O=c1cc(CSc2nnc(-c3cccs3)n2Cc2ccccc2)nc2sc3ccccc3n12,.,.,.,.,.,26µM
Cc1cc(C(=O)CSc2nnc(-c3cccs3)n2Cc2ccccc2)c(C)n1C,.,.,.,.,.,.
CCOc1ccc(CC(=O)NCC(=O)NCc2cc(=O)n(C)c(=O)n2C)cc1,.,.,.,.,.,.
Cn1c(SCC(=O)Nc2cccc(C(=O)O)c2)nnc1-c1cc2cc(Br)ccc2o1,.,.,.,.,.,.
CCc1cccc(C)c1NC(=O)CSc1nnc(-c2cc3cc(Br)ccc3o2)n1CC,.,?,.,.,.,16µM
Cc1cc(N2CCC(C)CC2)nc2cccc(O)c12,.,.,.,.,.,?
CCOc1ccc(S(=O)(=O)N2CCCCC2)c2ccccc12,.,.,.,.,.,?
CCOc1ccc(S(=O)(=O)n2ccc(C)n2)c2ccccc12,.,?,.,.,.,23µM
Cc1ccc(Cl)cc1NC(=O)/C(C#N)=C/c1c(C)n(Cc2ccccc2)c2ccccc12,.,.,.,.,/,.
Cc1c(/C=C(\C#N)C(=O)Nc2cccc(Cl)c2)c2ccccc2n1Cc1ccccc1,.,?,.,.,/,8.2µM
O=c1oc2ccccc2cc1-c1nc2c(s1)CCc1ccccc1-2,.,?,4µM,.,.,?
COc1cccc(CNCCSc2nnnn2-c2ccccc2)c1OC,.,.,.,.,/,.
COc1cccc(C(=O)N2CCN(CCc3ccncc3)CC2)c1,.,.,.,.,/,.
CCCC(=O)C1=C(O)C(c2cccc(Oc3ccccc3)c2)CCC1=O (stereo not drawn),.,?,.,.,.,18µM
CCC(C)[C@H](NC(=O)[C@@H]1Cc2c([nH]c3ccccc23)C2c3ccccc3C(=O)N21)C(=O)N1CCC[C@@H]1C(=O)O (stereo partly drawn),.,.,.,.,.,?
COc1ccc(N2CCN(c3c4c(nc5nncn35)CCC4)CC2)cc1,.,.,.,/,/,21µM
Cc1nc(Nc2ccccc2Cl)sc1C(=O)Nc1ccccc1,.,.,.,.,16µM,.
Cc1nc(Nc2ccccc2)sc1C(=O)Nc1ccccc1,.,.,.,.,.,.
SMILES,miR-21 reporter,A549 viability,Nrf2 ARE act,GRP78 ERSR act,Mito fusion act,Nrf2 block
Cc1cc(-c2ccccc2)cc(=O)[nH]1,/,.,.,.,/,.
Cc1cc(-c2ccccc2)cc(-c2ccccc2)[n+]1C,.,.,.,.,.,12µM
CN1/C(=C/C(=S)NC(=O)C2(C)CC2(Cl)Cl)C(C)(C)c2ccccc21 (stereo not drawn),.,.,.,.,.,?
Cc1ccc2nc(NCc3ccccc3)c(C=NCc3ccccc3)c(=O)n2c1,.,.,.,.,7.9µM,?
Cc1cccn2c(=O)c(C=NCc3ccccc3)c(NCCO)nc12,.,.,.,.,.,.
Cc1[nH]n(-c2ccccc2)c(=O)c1C1(C(F)(F)F)C(=O)N(c2ccc(F)cc2)C2=C1C(=O)CC(C)(C)C2 (stereo not drawn),.,.,.,.,.,.

# High-throughput results deposited in PubChem BioAssay by National Center for Advancing Translational Sciences (NCATS).
